Sequences of proteins named here, by UniProt entry; tags and fusion partners are left off. Residues count along the entry.
UniProt Q14432, 674-1093 limits assumed: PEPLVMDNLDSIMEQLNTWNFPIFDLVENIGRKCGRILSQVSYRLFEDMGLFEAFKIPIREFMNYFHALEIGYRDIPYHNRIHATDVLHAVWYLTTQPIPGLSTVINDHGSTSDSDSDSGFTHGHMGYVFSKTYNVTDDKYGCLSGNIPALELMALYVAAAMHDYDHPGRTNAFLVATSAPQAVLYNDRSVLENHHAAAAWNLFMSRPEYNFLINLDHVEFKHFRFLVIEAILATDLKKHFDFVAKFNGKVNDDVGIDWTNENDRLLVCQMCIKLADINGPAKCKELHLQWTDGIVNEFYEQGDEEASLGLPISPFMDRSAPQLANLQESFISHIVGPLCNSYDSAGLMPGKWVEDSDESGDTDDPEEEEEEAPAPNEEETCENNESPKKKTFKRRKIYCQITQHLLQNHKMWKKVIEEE
UniProt Q07343, 330-659 limits assumed: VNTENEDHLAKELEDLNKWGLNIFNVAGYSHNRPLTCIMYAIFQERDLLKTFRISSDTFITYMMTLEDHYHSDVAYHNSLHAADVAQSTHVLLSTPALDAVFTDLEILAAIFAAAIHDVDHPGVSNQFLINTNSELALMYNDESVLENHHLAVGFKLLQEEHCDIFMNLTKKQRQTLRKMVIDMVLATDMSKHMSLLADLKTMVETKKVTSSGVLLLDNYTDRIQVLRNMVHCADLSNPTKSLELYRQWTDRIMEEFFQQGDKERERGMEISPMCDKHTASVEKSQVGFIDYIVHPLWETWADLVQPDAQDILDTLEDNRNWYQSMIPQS
UniProt Q9Y233, 1-779 isoform 1: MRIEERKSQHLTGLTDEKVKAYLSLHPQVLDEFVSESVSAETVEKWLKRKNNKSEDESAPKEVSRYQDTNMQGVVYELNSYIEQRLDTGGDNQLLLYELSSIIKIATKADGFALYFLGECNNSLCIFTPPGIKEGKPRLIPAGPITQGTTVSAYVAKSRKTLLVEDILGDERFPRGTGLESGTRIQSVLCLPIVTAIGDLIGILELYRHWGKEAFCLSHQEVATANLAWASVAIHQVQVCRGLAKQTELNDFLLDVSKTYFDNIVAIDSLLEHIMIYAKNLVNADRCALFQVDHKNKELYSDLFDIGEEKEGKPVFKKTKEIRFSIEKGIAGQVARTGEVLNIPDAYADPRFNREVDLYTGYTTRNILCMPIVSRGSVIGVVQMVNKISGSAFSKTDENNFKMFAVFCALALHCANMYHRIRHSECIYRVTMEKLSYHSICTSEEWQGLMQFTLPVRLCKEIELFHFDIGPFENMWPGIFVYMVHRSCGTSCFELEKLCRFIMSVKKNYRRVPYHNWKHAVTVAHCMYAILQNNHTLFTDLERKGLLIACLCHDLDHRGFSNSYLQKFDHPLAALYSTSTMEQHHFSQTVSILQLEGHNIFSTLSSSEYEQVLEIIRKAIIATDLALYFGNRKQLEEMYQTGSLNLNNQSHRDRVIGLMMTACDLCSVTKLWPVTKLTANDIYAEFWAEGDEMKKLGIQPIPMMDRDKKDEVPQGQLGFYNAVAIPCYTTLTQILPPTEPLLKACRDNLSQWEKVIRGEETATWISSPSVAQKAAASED

According to US7763617B2, “Pyrazolopyridine-4-yl pyridazinone derivatives and addition salts thereof, and PDE inhibitors comprising the same derivatives or salts as active ingredient” (Kyorin Pharmaceutical Co., Ltd., priority 2005, dated 2010):

Assays:
[1] = target: PDE3A catalytic domain (PDE3Acat) (Homo sapiens, UniProt Q14432); experiment: Inhibition of phosphodiesterase activity, [3H]-cAMP hydrolysis, recombinant PDE3Acat; type: biochemical; details: read-out: IC50(μmol/L) PDE3, cAMP 2 μmol/L
PDE4Bcat = PDE4Bcat (Homo sapiens, UniProt Q07343); experiment: Inhibition of phosphodiesterase activity, [3H]-cAMP hydrolysis, recombinant PDE4Bcat; type: biochemical; details: read-out: IC50(μmol/L) PDE4, cAMP 2 μmol/L
[2] = test system: histamine-induced bronchoconstriction; experiment: Histamine-induced bronchoconstriction in guinea pigs; type: in vivo, guinea pig; details: 30 seconds after administration, histamine 12.5 μg/kg i.v.
PDE5Acat = PDE5Acat (Homo sapiens, UniProt O76074); experiment: Inhibition of phosphodiesterase activity, [3H]-cGMP hydrolysis, recombinant PDE5Acat; type: biochemical; details: read-out: IC50(μmol/L) PDE5, cGMP 2 μmol/L
PDE10A1 = PDE10A1 (Homo sapiens, UniProt Q9Y233); experiment: Inhibition of phosphodiesterase activity, [3H]-cAMP hydrolysis, recombinant PDE10A1; type: biochemical; details: read-out: IC50(μmol/L) PDE10; human recombinant PDE10A1, cAMP 0.2 μmol/L
[3] = values in brackets: test compound 0.1 mg/kg, i.v.

SMILES | IC50 [1] [µmol/L] | IC50 (PDE4Bcat) [µmol/L] | IC50 (PDE5Acat) [µmol/L] | IC50 (PDE10A1) [µmol/L] | % inhibition of histamine-induced bronchoconstriction [2, 3] | % inhibition of histamine-induced bronchoconstriction ([2]; test compound 1 mg/kg i.v.)
CCc1cc2c(C3=NN(Cc4ccccc4)C(=O)CC3C)ccc(OC)n2n1 (stereo not drawn) | 1 to 10 | < 1 | – | – | – | –
CCOc1ccc(C2=NN(Cc3cccnc3)C(=O)CC2C)c2cc(C(F)(F)F)nn12 (stereo not drawn) | > 10 | 0.1 to 1 | – | – | [++] ((++) means the inhibition is 80% or more and less than 90%) | –
CCc1cc2c(C3=NN(Cc4cccnc4)C(=O)CC3C)ccc(OC)n2n1 (stereo not drawn) | > 10 | 0.1 to 1 | > 10 | 1 to 10 | – | + ((+) means the inhibition is 70% or more and less than 80%)
COc1ccc(C2=NN(CCO)C(=O)CC2C)c2cc(C(F)(F)F)nn12 (stereo not drawn) | > 10 | < 1 | – | – | – | –

Now from value to compound, other results behind:

IC50 [1] [µmol/L] | IC50 (PDE4Bcat) [µmol/L] | IC50 (PDE5Acat) [µmol/L] | IC50 (PDE10A1) [µmol/L] | SMILES | % inhibition of histamine-induced bronchoconstriction [2, 3] | % inhibition of histamine-induced bronchoconstriction ([2]; test compound 1 mg/kg i.v.)
> 10 | 0.1 to 1 | – | – | COc1ccc(C2=NN(Cc3cccnc3)C(=O)CC2C)c2cc(C(C)C)nn12 (stereo not drawn) | – | –
> 10 | 1 to 10 | > 10 | 1 to 10 | CCc1cc2c(C3=NN(Cc4cccnc4)C(=O)CC3C)cccn2n1 (stereo not drawn) | – | –
> 10 | > 10 | > 10 | 1 to 10 | CCc1cc2c(C3=NN(Cc4cccnc4)C(=O)CC3)cccn2n1 | – | –
1 to 10 | < 1 | – | – | CCc1cc2c(C3=NN(CCc4ccccc4)C(=O)CC3C)ccc(OC)n2n1 (stereo not drawn) | – | –
1 to 10 | < 1 | – | – | CCc1cc2c(C3=NN(Cc4cccc([N+](=O)[O-])c4)C(=O)CC3C)ccc(OC)n2n1 (stereo not drawn) | [+] ((+) means the inhibition is 70% or more and less than 80%) | –
